Assay results as given in patent US9420796B2 (priority 2013, dated 2016).

Test system: zebra mussel veligers
Settings: in vivo

## chlorine
  Dead veligers estimated in the first portion of the experimental tank: approximately 231,800
